The results in this text go back to patent publication US20240252486A1, “ALGOSTATIC AGENTS FOR PREVENTING TRANSITION FROM ACUTE TO CHRONIC PAIN” (The Regents of the University of California, priority 2021, published 2024).

The subject of this assay is mice subjected to chronic constriction injury (CCI) of the sciatic nerve. Put plainly: Chronic constriction injury (CCI) of the sciatic nerve.

The structures appear in SMILES notation.

For the compound `CCS(=O)(=O)c1ccccc1C(=O)N1CCN(c2nc3ccc(F)cc3s2)C[C@@H]1C` [ARN19702], the “chronic pain manifestations after CCI (spontaneous pain, hypersensitivity to heat and mechanical stimuli, long-term memory)” value (ARN19702 30 mg-kg^−1 IP once daily for 3 days starting 24 h after surgery, POD 7-14 and POD 26) was “prevented the appearance”. Moreover, the “persistent hypersensitivity elicited by CCI” value (post-injury intrathecal infusion at post-operative day 2 and 4, assessed post-operative day 14) is on record as “stopped”.

In the case of `CC(C)(Sc1ccc(CCN(CCCCC2CCCCC2)C(=O)NC2CCCCC2)cc1)C(=O)O` [GW7647, reference compound], the “pain chronification (hyperalgesia)” value (GW7647 10 mg-kg^−1 IP, post-procedural day 2-4, wild-type mice subjected to CCI) is “stopped”.
